Assay: Thermogravimetry / DSC of eplerenone solvates (desolvation)
Format: physicochemical
Details: eplerenone solvate of the named solvent; extrapolated from final solvent weight loss step, thermogravimetric analysis at 10° C./minute under nitrogen purge
Method: Each sample (1-10 mg) was placed in an unsealed aluminum pan and heated at 10° C./minute. One or more endothermal events at lower temperatures were associated with enthalpy changes that occurred as solvent was lost from the solvate crystal lattice. The highest temperature endotherm or endotherms were associated with the melting/decomposition of Form L or Form H eplerenone.
Thermogravimetric analysis of solvates was performed using a TA Instruments TGA 2950 thermogravimetric analyzer. Samples were placed in an unsealed aluminum pan under nitrogen purge. Starting temperature was 25° C. with the temperature increased at a rate of about 10° C./minute.

CCCO [n-Propanol]
Desolvation Temperature: 129 °C

Source: patent US20030220312A1, “Epoxy-steroidal aldosterone antagonist and calcium channel blocker combination therapy for treatment of cardiovascular disorders” (G.D. Searle & Co., priority 2000, published 2003)
